Measurements as given in patent US6303761A, “Triaminepentaacetic acid compound and paramagnetic metal complex prepared from using the compound as ligand” (Department of Health The Executive Yuan, Republic of China, priority 1999, dated 2001).

Key:
[1] = Selectivity constant of the ligand for Gd^3+ over Zn^2+; assay type: physicochemical
[2] = Selectivity constant of the ligand for Gd^3+ over Cu^2+; assay type: physicochemical
[3] = Selectivity constant of the ligand for Gd^3+ over Ca^2+; assay type: physicochemical
[4] = assay type: physicochemical; details: pH 7.4
[5] = 25.0 ± 0.1° C., aqueous Me4 NNO3, I = 0.10 mol dm^-3
[6] = 25.0 ± 0.1° C., aqueous Me4 NNO3, I = 0.10 mol dm^-3; remark: listed apart in the source
[7] = 25.0 ± 0.1° C., aqueous Me4 NNO3, I = 0.10 mol dm^-3; remark: listed apart in the source
[8] = 25.0 ± 0.1° C., aqueous Me4 NNO3, I = 0.10 mol dm^-3; remark: listed apart in the source
physchem = details: 25.0 ± 0.1° C., aqueous Me4 NNO3, I = 0.10 mol dm^-3

O=C(O)CN(CCN(CC(=O)O)CC(=O)O)CCN(CC(=O)O)CC(=O)O [DTPA, diethylenetriaminepentaacetic acid, reference compound]
selectivity constant log K(Gd/Zn) [1]: 3.76 | selectivity constant log K(Gd/Cu) [2]: 1.08 | selectivity constant log K(Gd/Ca) [3]: 11.71 | modified selectivity constant log K sel' [4]: 7.07 | log K [GdL]/[Gd][L] [5]: 22.46 | log K [CaHL]/[CaL][H] [6]: 6.11 | log K [CaL]/[Ca][L] [6]: 10.75 | log K [ZnHL]/[ZnL][H] [7]: 5.60 | log K [ZnL]/[Zn][L] [7]: 18.70 | log K [CuL]/[CuL][H] [8]: 4.81 | log K [CuL]/[Cu][L] [8]: 21.38 | pKa (physchem; aqueous me4nno3, first protonation constant log K1^H, [HL]/[L][H]): 10.5 | pKa (physchem; aqueous me4nno3, fourth protonation constant log K4^H, [H4 L]/[H3 L][H]): 2.64 | pKa (physchem; aqueous me4nno3, second protonation constant log K2^H, [H2 L]/[HL][H]): 8.6 | pKa (physchem; aqueous me4nno3, third protonation constant log K3^H, [H3 L]/[H2 L][H]): 4.28
